Assay results taken from patent US11116740B2, “Methods for use in support of planned supplement and food ingredient products for diagnosis and treatment of metabolic syndrome” (priority 2015, dated 2021).

Settings: bottlenose dolphin (Tursiops truncatus), in vivo, 12 weeks
Procedure: This study examined global metabolic profiles in six dolphins (“Group A dolphins”). The dolphins lived in netted enclosures within San Diego Bay. The dolphins started on a 100% capelin diet. Group A dolphins were fed one-third of their daily diet in the morning after their routine overnight fast and 2h postprandial, in-water, and trained blood samples were drawn (typically near 10:00 a.m.). An additional four dolphins (“Group C dolphins”) were fed the capelin diet.
Two hour post-prandial samples were collected from the dolphins at baseline (week 0) and at four time points following the switch to the modified diet: 6, 12, 18, and 24 weeks. Routine monthly samples collected from four reference dolphins that were housed in the same environment as the Group A dolphins were assessed for glucose, triglycerides, ferritin, and percent serum fatty acids. […]
Ultrahigh Performance Liquid Chromatography-Tandem Mass Spectroscopy (UPLC-MS/[…]): Each of four methods utilized a Waters ACQUITY ultra-performance liquid chromatography (UPLC) and a Thermo Scientific Q-Exactive high resolution/accurate mass spectrometer interfaced with a heated electrospray ionization (HESI-II) source and Orbitrap mass analyzer operated at 35,000 mass resolution. […] A first aliquot was analyzed using acidic positive ion conditions, chromatographically optimized for more hydrophilic compounds. […]

serum concentration 12 wk / 0 wk: 1.14
SMILES: CCCCCCCCC(=O)O [perlargonate (9:0), nonanoic acid]
